The values below are quoted from earlier work in patent US9233107B2, “Compositions and methods for the treatment of progressive multifocal leukoencephalopathy (PML)” (Biogen MA Inc., priority 2007, dated 2016).

This data set addresses A2a receptor (Homo sapiens, UniProt P29274). The following applies: compared with the other enantiomer (Weiss, Benwell et al. 2003); cited from earlier work.

On to `O[C@@H](c1cc(C(F)(F)F)nc2c(C(F)(F)F)cccc12)[C@H]1CCCCN1` (single isomer, unassigned) [(−) enantiomer], for which the “antagonistic activity against A2a receptor, in words” value was “much more potent in antagonistic activity against A2a receptor”.
